From patent US10906905B2, “Five-membered heteroaryl ring bridged ring derivative, preparation method therefor and medical use thereof” (Jiangsu Hengrui Medicine Co., Ltd., priority 2016, dated 2021)
Read-outs that look alike come from different tables or passages of the source.

Key:
[1] = tested on: Smad signaling pathway of TGFβRI; assay: Inhibition of Smad signaling pathway of TGFβRI (3TP-lux luciferase reporter in HepG2 cell); conditions: read-out: IC50 on the inhibition of Smad signaling pathway of TGFβRI, 3TP-lux plasmid, 18 hours
NIH3T3 cell = assay: Inhibition of NIH3T3 cell proliferation (CellTiter-Glo); assay type: cell-based; conditions: read-out: IC50 on the inhibition of NIH3T3 cell proliferation, 72 hours, 0.5% FBS
[2] = Pharmacokinetics assay in rats after intragastrical administration; conditions: SD rats, 2 mg/kg

Structure (SMILES): Cc1cccc(-c2nc3n(c2-c2ccnc(-c4cnn(C)c4)c2)C2CCC3C2)n1 (single isomer, unassigned) [The compound with retention time of 2.955 minutes among 12-1]
- IC50 [1]: 9 nM
- IC50 (NIH3T3 cell; listed as The compound with retention time is 2.955 minutes among 12-1 and 12-2): 37 nM

Structure (SMILES): Cc1cccc(-c2nc3n(c2-c2ccc4nccnc4c2)C2CCC3C2)n1 (single isomer, unassigned) [The compound with retention time of 3.747 minutes among 6-1 ]
- IC50 [1]: 4 nM
- IC50 (NIH3T3 cell): 40 nM

Structure (SMILES): Cc1cccc(-c2nc3n(c2-c2ccnc(-c4ccc(C(N)=O)cc4)c2)C2CCC3C2)n1 (single isomer, unassigned) [The compound with retention time of 4.058 minutes among 4-1 ]
- IC50 [1]: 27 nM
- IC50 (NIH3T3 cell): 39 nM

Structure (SMILES): Cc1cccc(-c2nc3n(c2-c2ccnc(-c4cnn(C)c4)c2)C2CCC3C2)n1 (single isomer, unassigned) [The compound with retention time of 4.695 minutes among 12-1]
- IC50 [1]: 13 nM
- IC50 (NIH3T3 cell; listed as The compound with retention time is 4.695 minutes among 12-1 and 12-2): 41 nM

Structure (SMILES): Cc1cccc(-c2nc3n(c2-c2ccc4nccnc4c2)C2CCC3C2)n1 (single isomer, unassigned) [The compound with retention time of 5.327 minutes among 6-1 ]
- IC50 [1]: 3 nM
- IC50 (NIH3T3 cell): 18 nM

Structure (SMILES): Cc1cccc(-c2nc3n(c2-c2ccnc(-c4ccc(C(=O)NC5CCOCC5)cc4)c2)C2CCC3C2)n1 (single isomer, unassigned) [The compound with retention time of 5.418 minutes among 17-1]
- IC50 [1]: 71 nM

Structure (SMILES): NC(=O)c1nnc2ccc(-c3c(-c4ccc(F)cn4)nc4n3C3CCC4C3)cn12 (single isomer, unassigned) [The compound with retention time of 6.631 minutes among 9-1 ]
- IC50 [1]: 29 nM
- IC50 (NIH3T3 cell): 69 nM
- Apparent distribution volume Vz/F [2]: 7.675 ± 1.629 L/kg
- Area under curve AUC [2]: 914 ± 410 ng·h/mL
- Clearance CLz/F [2]: 43.1 ± 19.8 mL/min/kg
- Half-life T1/2 [2]: 2.39 ± 1.04 h
- Plasma concentration Cmax [2]: 386 ± 148 ng/mL
- Residence time MRT [2]: 2.60 ± 0.60 h

Structure (SMILES): Cc1cccc(-c2nn3c(c2-c2ccnc4ccc(C(N)=O)cc24)C2CCC3C2)n1 (single isomer, unassigned) [The compound with retention time of 7.153 minutes among 35-1]
- IC50 [1]: 56 nM

Structure (SMILES): Cc1cccc(-c2nc3n(c2-c2ccnc(-c4ccc(C(N)=O)cc4)c2)C2CCC3C2)n1 (single isomer, unassigned) [The compound with retention time of 7.204 minutes among 4-1 ]
- IC50 [1]: 60 nM

Structure (SMILES): Cc1cccc(-c2nn3c(c2-c2ccnc4ccc(C(N)=O)cc24)C2CCC3C2)n1 (single isomer, unassigned) [The compound with retention time of 7.992 minutes among 35-1]
- IC50 [1]: 87 nM

Structure (SMILES): Cc1cccc(-c2nc3n(c2-c2ccnc(-c4ccc(C(=O)NC5CCOCC5)cc4)c2)C2CCC3C2)n1 (single isomer, unassigned) [The compound with retention time of 9.196 minutes among 17-1]
- IC50 [1]: 38 nM

Structure (SMILES): NC(=O)c1nnc2ccc(-c3c(-c4ccc(F)cn4)nc4n3C3CCC4C3)cn12 (single isomer, unassigned) [The compound with retention time of 13.001 minutes among 9-1]
- IC50 [1]: 94 nM
